Experimental findings from article PMC9630929 (Journal of medicinal chemistry, 2022) are described below.

Experiment [1] deals with other tested bromodomains. The following applies: panel of up to 30 bromodomains in seven subfamilies.

Consider `CN(C)/C=C1\CCn2c1nc(=O)c1c(Cl)cccc12` [Compound 2, (E)-6-Chloro-3-((dimethylamino)methylene)-2,3-dihydropyrrolo[1,2-a]quinazolin-5(1H)-one], for which the “selectivity among the tested bromodomains (DSF)” value in experiment [1] is “unselective”. On to `Cc1cccc(C)c1C1NC(=O)c2c(Cl)cccc2N1` (centres unmarked) [Compound 26, 5-Chloro-2-(2,6-dimethylphenyl)-2,3-dihydroquinazolin-4(1H)-one], for which the “growth inhibition of HEK293T cells” value in the experiment on HEK293T cells was “off-target toxicity at ≥10 μM concentrations”.
